Measured affinities in a library of Ab-14 light chain variants

The measurements come from Li et al. 2023 (doi:10.1038/s41467-023-39022-2) through the FLAb antibody collection.

All variants were tested on one target, the spike HR2 peptide PDVDLGDISGINAS (SARS-CoV-2).

Ab-14 is the parent antibody, in scFv form: VH, then the linker GGGGSGGGGSGGGGS, then VL. The heavy chain is unchanged in all variants.
VH: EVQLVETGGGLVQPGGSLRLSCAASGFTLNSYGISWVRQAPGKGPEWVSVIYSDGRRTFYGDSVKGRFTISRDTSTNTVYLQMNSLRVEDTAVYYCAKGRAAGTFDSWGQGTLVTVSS
VL: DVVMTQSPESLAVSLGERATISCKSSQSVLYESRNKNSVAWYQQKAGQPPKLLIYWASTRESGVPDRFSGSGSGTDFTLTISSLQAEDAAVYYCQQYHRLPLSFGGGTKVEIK

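These sequences belong to a second round, designed from the earlier measurements on random variants of the parent. Group labels follow the data file (En: ensemble of fine-tuned language models; GP: Gaussian process model; HC: hill climbing; Gen: genetic algorithm; Gibbs: Gibbs sampling; a sequence that several methods proposed may carry one label only). Affinity was read by AlphaSeq, a pooled yeast mating assay with surface-displayed partners. Binding brings cells together so that they mate, and sequencing counts the barcode pairs among the diploids. Each replicate has its own calibration line, from reference interactions of the BCL2 family. There are six technical replicates.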

Each variant is given by its three light chain CDRs, as the data file delimits them; those of the parent are KSSQSVLYESRNKNSVA, WASTRES, QQYHRLPLS.
This list holds designs with more than six substitutions.
Kd is apparent (estimated from mating counts) and averaged on the log scale over replicates with a signal. Smaller is tighter.
A pair that was not seen in any replicate is written "no signal"; this usually means weak binding, but a binder can also be missed.

With HITSQEVGTIGAESNVA | ETNTLLY | QQYSKLPLM [En_Gibbs] the result was 25 nM (6 of 6 replicates; controls 2 of 18). For MLSMVADYASVSKNSVA | EMATREN | QQYDRLPLS [En_Gen], the assay gave 35 nM (6 of 6 replicates; controls 0 of 18). Variant KVDFSWWYESRNKNSVA | NASTREQ | QQYHRLPLS [GP_Gibbs] showed 1.9 nM (6 of 6 replicates; controls 2 of 18). With MISQMYNMGQFAINSVA | QASERNN | QQYDRLPLI [En_Gen] the result was 3.5 nM (6 of 6 replicates; controls 0 of 18). With KLGATMNTEMTKRNNVA | DLVNREN | QQYFRLPLS [En_Gen] the result was 1.1 nM (6 of 6 replicates; controls 0 of 18). For HITYGMMVHGRHSSSIA | QAETRAK | QQYDRLPLS [En_Gen], the assay gave 280 nM (3 of 6 replicates; controls 0 of 18).

Variant MVSQLMLWGHLAKNSIA | EAQMRLN | QQYDRLPLF [En_Gen] gave 250 nM (1 of 6 replicates; controls 0 of 18). With KLSQQDEYESRNKNSVA | QASCREQ | QQYHRLPLS [GP_Gibbs] the result was 450 pM (6 of 6 replicates; controls 0 of 18). Variant KIGMTLNQLLHQKNNVA | DLVMREN | QQYFRLPLS [En_Gen] gave 4.3 nM (6 of 6 replicates; controls 1 of 18). With MFEGYNTEGEANNNNVA | DHNCGER | QQYYRLPLA [En_Gibbs] the result was no signal (0 of 6 replicates; controls 0 of 18). With HMQNEWQGDSRQENNVA | ETTVVCT | QQYATLPLT [En_Gibbs] the result was 110 nM (6 of 6 replicates; controls 0 of 18). With KISQTSEMETKNRNSVA | ELVTRMS | QQYNRLPLS [En_Gen] the result was 60 nM (5 of 6 replicates; controls 1 of 18).

Variant IVSQLMMWGMHAKNSIA | EAVTRLN | QQYDRLPLI [En_Gen] showed 170 nM (2 of 6 replicates; controls 0 of 18). Variant KLVMSELYESRQKNSVA | NASQREM | QQYHRLPLS [GP_Gibbs] showed 380 pM (6 of 6 replicates; controls 1 of 18). Variant SLYEVSEELSGKKHSVA | DNSTRGD | QQYFRLPLE [En_Gen] gave 6.8 nM (6 of 6 replicates; controls 0 of 18). Variant HLSDAVKMESRNTNSVA | DNSTRGS | QQYDRLPLS [En_HC] showed 7.6 nM (6 of 6 replicates; controls 1 of 18). Variant SISQLLNFELKIGNNVA | QMETRVN | QQYDRLPLS [En_Gen] showed 26 nM (3 of 6 replicates; controls 0 of 18). For IVSQLMLWGMHLKNSIA | EAVTRLN | QQYERLPLF [En_Gen], the assay gave no signal (0 of 6 replicates; controls 0 of 18).

Variant KISQMTRVGSTKGNSIA | EEVTRAK | QQYHRLPLF [En_Gen] showed 31 nM (6 of 6 replicates; controls 1 of 18). With KITNTMRFEQKNSNNIA | EVTTRSK | QQYVRLPLA [En_Gen] the result was 4.7 nM (6 of 6 replicates; controls 0 of 18). Variant KLSQSEPYESRNKNSVA | NASYRCS | QQYHRLPLH [GP_Gibbs] gave 13 nM (6 of 6 replicates; controls 1 of 18). For TITGMVEEIGTTMKNIA | EGEFRCM | QQYSRLPLS [En_Gibbs], the assay gave 100 nM (5 of 6 replicates; controls 0 of 18). Variant QLLMATMQGTYQRNSVA | HAETRED | QSYHRLPLS [En_HC] gave 850 nM (4 of 6 replicates; controls 1 of 18). Variant MLSDLVKMGQRNTNSVA | DNSTRGS | QQYDRLPLS [En_HC] showed 190 nM (3 of 6 replicates; controls 1 of 18).

Variant KISMATAFESRNHNSVA | ENSTRES | QSYHRLPLS [En_HC] gave 450 nM (1 of 6 replicates; controls 0 of 18). For KLSMSMLMESRHVNSVA | ENSTRES | QHYHRLPLS [En_HC], the assay gave 950 nM (2 of 6 replicates; controls 0 of 18). With KLTHPSDSWLEHENSIA | DDNISLT | QQYHQLPLS [En_Gibbs] the result was 15 nM (6 of 6 replicates; controls 0 of 18). With HISPSFMVESKLRNSVA | QTETRVE | QQYDRLPLS [En_HC] the result was 4.1 nM (6 of 6 replicates; controls 2 of 18). Variant KISMLINQTFEESNNVA | EMVTRYK | QQYNRLPLS [En_Gen] showed 51 nM (6 of 6 replicates; controls 1 of 18). Variant KLDQSDWLQSRNVNSVA | QASTRES | QQYHRLPLS [GP_Gibbs] showed 1.2 nM (6 of 6 replicates; controls 2 of 18).

Variant TLSGLMDMTSKNVNSVA | DLTTRGN | QQYHRLPLS [En_HC] showed 1.2 nM (6 of 6 replicates; controls 0 of 18). Variant KISMYLNKESKAKNNVA | EMVNRES | QQYDRLPLS [En_HC] gave 2.4 nM (6 of 6 replicates; controls 1 of 18). Variant KFSQTVNTMSVSKSAVA | EMSTRPE | QQYNRLPLS [En_Gen] gave 8.5 nM (6 of 6 replicates; controls 1 of 18). For TLMFDGEYSDKENYAIA | DAIQTQV | QQYVRLPLS [En_Gibbs], the assay gave 6.5 nM (6 of 6 replicates; controls 0 of 18). Variant KLWAYTQGFFRNMQNIA | DGSYRVT | QQYGRLPLS [En_Gibbs] gave 4.0 nM (6 of 6 replicates; controls 2 of 18). For RITYKAEQLERHNSSVA | NGSARCF | QQYFMLPLS [En_Gibbs], the assay gave 35 nM (6 of 6 replicates; controls 0 of 18).

Variant KIGMTLNQLQEKKNNVA | DLVAREN | QQYHRLPLS [En_Gen] showed 3.2 nM (6 of 6 replicates; controls 1 of 18). With MISQIYNVGQFAINSVA | QASLRCN | QQYDRLPLE [En_Gen] the result was 380 nM (2 of 6 replicates; controls 0 of 18). With MLTMFNNENQGWSNNIA | DTNNLQE | QQYSRLPFM [En_Gibbs] the result was 9.5 nM (6 of 6 replicates; controls 2 of 18). With KVSMLDDGGSRNKNSVA | HASTRES | QQYHRLPLS [GP_Gibbs] the result was 2.5 nM (6 of 6 replicates; controls 0 of 18). Variant MLSMVADYSSVSKNSVA | EMETREE | QQYDRLPLI [En_Gen] gave 57 nM (6 of 6 replicates; controls 1 of 18).

Top 5 of the variants detected in all replicates, tightest first:

CDR-L1	CDR-L2	CDR-L3	group	apparent Kd	seen in	signal with controls
KLVMSELYESRQKNSVA	NASQREM	QQYHRLPLS	GP_Gibbs	380 pM	6/6	1/18
KLSQQDEYESRNKNSVA	QASCREQ	QQYHRLPLS	GP_Gibbs	450 pM	6/6	0/18
KLGATMNTEMTKRNNVA	DLVNREN	QQYFRLPLS	En_Gen	1.1 nM	6/6	0/18
TLSGLMDMTSKNVNSVA	DLTTRGN	QQYHRLPLS	En_HC	1.2 nM	6/6	0/18
KLDQSDWLQSRNVNSVA	QASTRES	QQYHRLPLS	GP_Gibbs	1.2 nM	6/6	2/18

The range of this assay differs from that of the first round, and the authors advise against merging the two.
Nonspecific signal, from three strains lacking the peptide, appeared in 4% of pairings of all light chain designs, centred on 430 nM (5% of these signals below 38 nM); values are not corrected for it. The control count says in how many pairings with the empty strains this scFv gave a signal.
The parent sequence was in this pool as ten entries: three were never detected, three once, and four in most replicates, with averages from 2.2 nM to 240 nM.
In the paper, a design with two or fewer of six values counts as a poor binder.